# Assay results: PubChem BioAssay AID1461 (National Center for Advancing Translational Sciences (NCATS), 2008)
# Amino acid sequences for entries named in this document (tags omitted).
# UniProt Q6W5P4, whole entry: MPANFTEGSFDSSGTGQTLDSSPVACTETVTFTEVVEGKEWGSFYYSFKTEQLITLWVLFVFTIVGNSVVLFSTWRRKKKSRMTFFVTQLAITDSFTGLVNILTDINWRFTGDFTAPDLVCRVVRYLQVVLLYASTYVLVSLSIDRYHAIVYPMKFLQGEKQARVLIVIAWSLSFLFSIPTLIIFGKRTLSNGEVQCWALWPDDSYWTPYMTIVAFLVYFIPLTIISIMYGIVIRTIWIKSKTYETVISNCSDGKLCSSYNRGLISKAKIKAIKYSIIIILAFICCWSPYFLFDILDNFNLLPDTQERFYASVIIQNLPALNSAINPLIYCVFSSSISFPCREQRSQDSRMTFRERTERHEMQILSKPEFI
# Only a part is listed here, and it is no random draw. Some of these compounds have results that are not shown, active ones among them. Records with an inconclusive call do not appear. Calls of active or inactive are those of the source. The call rests on the fitted dose curve; in most records, active means well fitted inhibition curve with a large enough effect; inconclusive means small, poorly fitted or top-dose-only effect, or effect the other way; inactive means no such curve, though single readings can be large or run the other way.
# Target: Neuropeptide S receptor (Homo sapiens) (UniProt Q6W5P4)
# Assay: qHTS Assay for Antagonists of the Neuropeptide S Receptor: cAMP Signal Transduction; further: nearly all actives have a fitted effect of over 50% in size
# Conditions: CHO-NPSR cells, cAMP TR-FRET, antagonist mode; at 38.3 µM (top of the series) unless noted
# On the % scale 0 is the no-effect control and ±100 the full control effect.
row,SMILES,"activity change, negative = inhibition"
1,Cc1ccccc1C(=O)NCC1(N2CCCCC2)CCCCC1,inactive: -4.87%
2,CN(C)C1CCCC1OC(=O)C(O)(c1ccccc1)c1ccccc1 (stereo unspecified),inactive: 8.22%
3,CCN1CCCC(OC(=O)C2(O)c3ccccc3C=Cc3ccccc32)C1 (stereo unspecified),inactive: 9.87%
4,C=CCN1CCN(CCOC(=O)C(O)(c2ccccc2)c2ccccc2)CC1,inactive: 0.525%
5,O=C(NCC1(N2CCCCC2)CCCCC1)c1cc([N+](=O)[O-])ccc1Cl,inactive: 2.55%
6,CCN(CC)CC(C)C(C)OC(=O)C(O)(c1ccccc1)c1ccccc1 (stereo unspecified),inactive: 6.99%
7,CC(C)N1C(=O)CC2(CCN(CCOC(=O)C(O)(c3ccccc3)c3ccccc3)CC2)C1=O,inactive: -2.6% [at 46.1 µM]
8,O=C(OC1CN2CCC1CC2)C(CO)(c1ccccc1)c1ccccc1 (stereo unspecified),inactive: -6.54% [at 46.1 µM]
9,CN(C)c1cccc(C(=O)NCC2(N(C)C)CCCCC2)c1,inactive: -16.1% [at 46.1 µM]
10,COc1ccc(Br)c(C(=O)NCC2(N3CCCCC3)CCCCC2)c1,inactive: -2.78% [at 7.67 µM]
11,COc1cccc(C(=O)NCC2(N3CCCCC3)CCCCC2)c1,inactive: -3.37%
